The source of these data is BindingDB's records for doi:10.1023/a:1006986824213 (1999).

The chains behind the UniProt entries cited, without tags or fusion partners.
UniProt P14842, whole entry: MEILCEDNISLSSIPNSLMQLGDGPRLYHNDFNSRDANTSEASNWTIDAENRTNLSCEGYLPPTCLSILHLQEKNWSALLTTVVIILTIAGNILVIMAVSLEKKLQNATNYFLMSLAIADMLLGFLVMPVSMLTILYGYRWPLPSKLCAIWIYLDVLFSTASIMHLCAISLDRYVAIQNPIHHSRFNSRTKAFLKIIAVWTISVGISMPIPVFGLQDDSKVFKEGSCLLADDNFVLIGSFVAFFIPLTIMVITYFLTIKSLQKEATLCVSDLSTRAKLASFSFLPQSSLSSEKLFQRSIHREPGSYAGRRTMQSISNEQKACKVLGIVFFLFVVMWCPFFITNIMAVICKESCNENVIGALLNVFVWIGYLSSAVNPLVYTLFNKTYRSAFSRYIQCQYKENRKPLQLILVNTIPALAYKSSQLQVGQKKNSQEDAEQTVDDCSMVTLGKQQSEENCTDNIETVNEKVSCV
UniProt P23977, whole entry: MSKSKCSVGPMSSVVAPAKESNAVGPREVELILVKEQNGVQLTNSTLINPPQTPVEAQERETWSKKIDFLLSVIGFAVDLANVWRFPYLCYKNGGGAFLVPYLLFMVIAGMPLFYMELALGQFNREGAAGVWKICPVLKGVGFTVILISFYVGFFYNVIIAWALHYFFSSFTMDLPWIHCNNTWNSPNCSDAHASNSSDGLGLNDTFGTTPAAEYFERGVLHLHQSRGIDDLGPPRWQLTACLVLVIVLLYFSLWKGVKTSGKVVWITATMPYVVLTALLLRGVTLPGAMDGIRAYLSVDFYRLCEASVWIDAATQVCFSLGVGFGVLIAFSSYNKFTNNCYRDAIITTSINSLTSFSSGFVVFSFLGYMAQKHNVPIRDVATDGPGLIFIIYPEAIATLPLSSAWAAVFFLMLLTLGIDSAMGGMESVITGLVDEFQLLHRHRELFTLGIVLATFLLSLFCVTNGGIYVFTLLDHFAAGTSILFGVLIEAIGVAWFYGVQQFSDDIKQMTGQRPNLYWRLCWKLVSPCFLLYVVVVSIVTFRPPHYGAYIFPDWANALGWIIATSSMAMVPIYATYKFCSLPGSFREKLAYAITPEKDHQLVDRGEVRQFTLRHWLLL
UniProt P31652, whole entry: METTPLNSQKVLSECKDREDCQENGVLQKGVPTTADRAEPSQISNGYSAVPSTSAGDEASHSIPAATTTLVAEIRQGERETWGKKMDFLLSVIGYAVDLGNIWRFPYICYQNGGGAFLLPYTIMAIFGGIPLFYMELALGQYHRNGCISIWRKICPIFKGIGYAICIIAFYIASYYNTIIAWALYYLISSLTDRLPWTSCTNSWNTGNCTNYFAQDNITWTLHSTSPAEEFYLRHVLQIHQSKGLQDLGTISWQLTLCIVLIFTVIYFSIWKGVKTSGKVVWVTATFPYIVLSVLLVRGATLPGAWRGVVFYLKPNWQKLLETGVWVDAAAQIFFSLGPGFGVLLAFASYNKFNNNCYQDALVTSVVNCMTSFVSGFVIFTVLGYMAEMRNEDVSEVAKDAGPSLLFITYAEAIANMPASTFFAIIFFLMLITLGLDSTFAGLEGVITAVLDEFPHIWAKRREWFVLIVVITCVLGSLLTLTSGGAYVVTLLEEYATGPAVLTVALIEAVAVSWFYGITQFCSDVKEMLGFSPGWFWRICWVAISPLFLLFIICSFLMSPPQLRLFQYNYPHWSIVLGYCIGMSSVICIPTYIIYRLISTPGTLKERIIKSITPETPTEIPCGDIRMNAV

Structures can show the parent of a compound that is named as a salt.

The target in assay [1] is 5-hydroxytryptamine receptor 2A (Rattus norvegicus, UniProt P14842).
Assay [2] concerns the target Sodium-dependent dopamine transporter (Rattus norvegicus, UniProt P23977).
The target of assay [3] is Sodium-dependent serotonin transporter (Rattus norvegicus, UniProt P31652).

In the case of `CN(C)CCCC1(c2ccc(F)cc2)OCc2cc(C#N)ccc21` (centres undefined) [CITALOPRAM HYDROBROMIDE], the Ki in assay [1] was 5.6 µM; in assay [2] it was more than 10 µM.
Turning to `Fc1ccc([C@@H]2CCNC[C@H]2COc2ccc3c(c2)OCO3)cc1` [PAROXETINE], the values for the inhibition constant (Ki) in assay [2] and in assay [3] were 5.1 µM and 0.00029 µM, respectively.
